Legend:
[1] = biological target: T1, hSGLT2 (Homo sapiens, UniProt P31639); test: α-methyl glucose uptake in CHO cell expressing hSGLT2; type: cell-based; details: CHO cells, NaCl + 10 μM or 100 μM Phlorizin, one-hour incubation, FIG. 3
T1 construct: expressed in transfected cells; host or cells: COS7 cells, transient, FuGENE 6
T1 sequence (P31639 1-672): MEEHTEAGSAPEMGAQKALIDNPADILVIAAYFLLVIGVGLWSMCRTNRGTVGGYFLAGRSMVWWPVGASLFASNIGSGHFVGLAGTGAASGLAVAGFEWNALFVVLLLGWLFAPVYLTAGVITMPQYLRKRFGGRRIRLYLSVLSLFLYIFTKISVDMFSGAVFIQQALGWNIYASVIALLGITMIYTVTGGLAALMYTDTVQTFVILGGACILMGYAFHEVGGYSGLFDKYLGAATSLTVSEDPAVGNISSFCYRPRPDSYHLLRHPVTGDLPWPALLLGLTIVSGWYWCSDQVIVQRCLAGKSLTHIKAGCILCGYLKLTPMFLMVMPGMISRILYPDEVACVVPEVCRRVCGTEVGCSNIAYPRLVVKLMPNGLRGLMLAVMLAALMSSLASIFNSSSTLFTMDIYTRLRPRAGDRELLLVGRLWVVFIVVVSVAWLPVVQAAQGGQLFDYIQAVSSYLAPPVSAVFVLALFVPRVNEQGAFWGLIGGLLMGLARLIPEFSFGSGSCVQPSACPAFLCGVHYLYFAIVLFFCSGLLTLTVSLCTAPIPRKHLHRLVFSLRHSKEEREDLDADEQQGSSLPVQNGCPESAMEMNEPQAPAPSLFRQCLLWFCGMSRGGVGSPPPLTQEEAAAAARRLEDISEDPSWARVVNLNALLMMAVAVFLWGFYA

[2] = biological target: T1, hSGLT2; test: α-methyl glucose uptake in COS7 cells carrying pME18S-hSGLT2; type: cell-based; details: NaCl + 100 μM or 1 mM phlorizin, one-hour incubation, FIG. 12

## O=C(CCc1ccc(O)cc1)c1c(O)cc(O)cc1O[C@@H]1O[C@H](CO)[C@@H](O)[C@H](O)[C@H]1O [phlorizin]
[1]
  inhibition of Na-dependent α-methyl glucose uptake activity: inhibited
[2]
  inhibition of NaCl-dependent glucose uptake activity: inhibited

— patent publication US7247705B2, “Proteins having glucose transporter activity” (Takeda Pharmaceutical Company Limited, priority 2000, dated 2007)
